Earlier results in US20050032827A1, “Sigma ligands for neuronal regeneration and functional recovery” (priority 2003, published 2005).

Chains of the proteins cited; added tags and fusions are not shown.
UniProt Q99720, whole entry: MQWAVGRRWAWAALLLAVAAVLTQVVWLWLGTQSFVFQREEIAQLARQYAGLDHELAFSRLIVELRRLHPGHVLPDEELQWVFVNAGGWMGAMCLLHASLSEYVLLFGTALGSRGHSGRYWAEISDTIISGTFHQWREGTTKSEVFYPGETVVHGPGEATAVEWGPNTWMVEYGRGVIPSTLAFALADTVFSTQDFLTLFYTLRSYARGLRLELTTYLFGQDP

Target: sigma-1 site (Homo sapiens, UniProt Q99720)
Settings: (+) isomers of benzomorphan opiates; Hellewell and Bowen (1990); cited from earlier work

In the case of (+)SKF 10,047, the “affinity for the sigma-1 site compared to the sigma-2 site” value is listed as “nearly two orders of magnitude higher affinity for the sigma-1 site”.
